The target in the assay is BTK (Homo sapiens (Human), UniProt Q06187). Briefly: Time Dependent Human Whole Blood IC50 assay. The assay is classed as cell-based. The note with it: read-out: Time Dependent Human Whole Blood BTK Enzyme Assay IC50. Here is the method:
Compounds described by embodiments of the present invention were assayed using a human whole blood assay. The data from the same is recorded in Table 2 within the column labeled: “Time Dependent Human Whole Blood BTK Enzyme Assay IC50”.

Amino acid sequences for entries named in this document (tags omitted). A change or cut given only in a name is not applied to a line headed by its entry.
UniProt Q06187: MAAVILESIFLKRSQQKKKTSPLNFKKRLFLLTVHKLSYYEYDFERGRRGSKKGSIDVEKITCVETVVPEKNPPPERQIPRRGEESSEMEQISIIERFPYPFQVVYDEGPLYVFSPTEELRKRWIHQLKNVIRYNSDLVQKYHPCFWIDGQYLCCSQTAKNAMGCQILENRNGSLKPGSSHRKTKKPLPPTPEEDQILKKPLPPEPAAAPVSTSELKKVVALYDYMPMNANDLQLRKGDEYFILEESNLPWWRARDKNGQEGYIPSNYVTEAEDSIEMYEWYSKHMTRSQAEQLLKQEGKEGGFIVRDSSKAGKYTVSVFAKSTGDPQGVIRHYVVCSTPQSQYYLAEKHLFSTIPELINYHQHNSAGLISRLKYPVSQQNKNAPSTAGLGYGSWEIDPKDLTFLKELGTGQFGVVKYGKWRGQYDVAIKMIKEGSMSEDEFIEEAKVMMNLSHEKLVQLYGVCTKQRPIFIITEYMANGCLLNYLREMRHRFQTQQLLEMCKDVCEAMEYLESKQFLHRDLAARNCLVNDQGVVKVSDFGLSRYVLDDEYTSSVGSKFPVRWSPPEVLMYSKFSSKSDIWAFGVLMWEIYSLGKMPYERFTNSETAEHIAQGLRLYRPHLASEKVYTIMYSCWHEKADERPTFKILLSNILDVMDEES

SMILES strings stand for the structures. Where only a bound is given, the exact number is not on record here.

For orientation: IC50 means the concentration at which inhibition is half-maximal. Regarding `C=CC(=O)N1CC[C@@H](Nc2ncnc(N)c2-c2ccc(Oc3ccccc3)cc2)C1` [A1, (R)-1-(3-((6-amino-5-(4-phenoxyphenyl)pyrimidin-4-yl)amino)pyrrolidin-1-yl)prop-2-en-1-one], the IC50 is under 1000 nM.

The values above are taken from patent publication US9580449B2, “Compositions and methods for the production of pyrimidine and pyridine compounds with BTK inhibitory activity” (Merck Patent GmbH, priority 2011, dated 2017).
